Tested on: mouse fibroblasts which do not express IGF-R receptors
Experiment: Selectivity of Doxorubicin-alphaIR3 on mouse fibroblasts without IGF-R

For `COc1cccc2c1C(=O)c1c(O)c3c(c(O)c1C2=O)C[C@@](O)(C(=O)CO)C[C@@H]3O[C@H]1C[C@H](N)[C@H](O)[C@H](C)O1` [Doxorubicin], the “cytotoxicity on fibroblasts which do not express IGF-R” value was “dose-dependent cytotoxicity”.

— patent publication US20060040390A1, “Device, method, system, and program for intelligent in vivo cell-level chemical or genetic material delivery” (priority 2004, published 2006)
